This note sets out measurements from paper PMC5041959, “A high-content EMT screen identifies multiple receptor tyrosine kinase inhibitors with activity on TGFβ receptor” (Oncotarget, 2016).

The chains behind the UniProt entries cited, without tags or fusion partners. Residues count along the entry.
UniProt P35968, 20-1356: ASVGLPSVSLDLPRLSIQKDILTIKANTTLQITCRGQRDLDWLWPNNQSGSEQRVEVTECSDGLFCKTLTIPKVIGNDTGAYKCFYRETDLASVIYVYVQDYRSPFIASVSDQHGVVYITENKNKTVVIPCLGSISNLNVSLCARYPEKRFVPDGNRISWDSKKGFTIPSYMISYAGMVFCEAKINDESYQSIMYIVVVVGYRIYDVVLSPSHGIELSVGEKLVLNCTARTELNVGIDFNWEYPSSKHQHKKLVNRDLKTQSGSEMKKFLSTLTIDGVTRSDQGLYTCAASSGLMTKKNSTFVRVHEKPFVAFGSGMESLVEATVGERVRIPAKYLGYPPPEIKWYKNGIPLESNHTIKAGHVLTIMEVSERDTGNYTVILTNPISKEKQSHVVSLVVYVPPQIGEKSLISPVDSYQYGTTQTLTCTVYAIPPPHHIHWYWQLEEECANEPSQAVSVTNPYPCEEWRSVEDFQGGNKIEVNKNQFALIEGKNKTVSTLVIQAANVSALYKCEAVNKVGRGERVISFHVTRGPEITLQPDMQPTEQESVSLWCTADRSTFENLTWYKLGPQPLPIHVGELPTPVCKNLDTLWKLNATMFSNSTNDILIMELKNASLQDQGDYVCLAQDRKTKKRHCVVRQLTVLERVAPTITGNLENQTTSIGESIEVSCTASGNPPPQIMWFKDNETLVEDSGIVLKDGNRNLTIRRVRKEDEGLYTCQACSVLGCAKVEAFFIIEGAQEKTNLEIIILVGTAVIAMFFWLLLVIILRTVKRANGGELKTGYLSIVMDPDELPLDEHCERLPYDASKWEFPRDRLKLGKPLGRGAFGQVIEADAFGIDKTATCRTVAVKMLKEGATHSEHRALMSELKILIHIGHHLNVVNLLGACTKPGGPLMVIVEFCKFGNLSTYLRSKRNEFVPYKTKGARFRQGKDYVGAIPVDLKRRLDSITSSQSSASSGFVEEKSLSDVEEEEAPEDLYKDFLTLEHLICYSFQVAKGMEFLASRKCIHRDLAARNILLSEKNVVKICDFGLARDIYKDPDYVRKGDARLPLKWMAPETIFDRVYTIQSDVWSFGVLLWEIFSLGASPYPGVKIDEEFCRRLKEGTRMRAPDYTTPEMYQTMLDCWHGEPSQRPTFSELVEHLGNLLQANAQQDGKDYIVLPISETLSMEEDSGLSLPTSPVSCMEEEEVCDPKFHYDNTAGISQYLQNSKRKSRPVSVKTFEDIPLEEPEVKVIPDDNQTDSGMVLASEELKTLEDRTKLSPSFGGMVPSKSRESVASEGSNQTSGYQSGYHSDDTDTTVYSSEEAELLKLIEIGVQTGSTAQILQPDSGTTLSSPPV

This assay addresses VEGFR2 (Homo sapiens, UniProt P35968). Put plainly: Biochemical kinase profiling (33PanQinase radiometric assay). To be noted: read-out: VEGFR2 IC50.

SMILES strings stand for the structures.

Take `Cc1cccc(-c2[nH]ncc2-c2ccc3ncccc3n2)n1` [RepSox]: the IC50 was found to be 264 nM.

For orientation: IC50 means the concentration that gives 50% inhibition.
